Laboratory results from ChEMBL document CHEMBL5725207, “Inhibitor of breast cancer resistance protein (BCRP)” (2017).

Experiment: Caco-2 cells assay: To determine potency of compounds on inhibition of transporters, bi-directional transport studies are performed in Caco-2 cells (American Type Culture Collection, Manassas, Va.) at 37° C. in air, according toXia et al. (Expression, localization and functional characteristics of breast cancer resistance protein in Caco-2 cells. Drug Met. Disp., 33 (5): 637-643 (2005)). Prior to …
Type: cell-based
Settings: Caco-2, 0.5 h

COc1ccc2c3c([nH]c2c1)[C@H](CC(C)C)N1C(=O)[C@H](CCC(=O)OC(C)(C)C)NC(=O)[C@@H]1C3
IC50: > 30 µM
